Data: ChEMBL document CHEMBL3243964, “Biomolecules bearing the S- or SeAsMe2 function: amino acid and steroid derivatives” (J Med Chem, 1979)

Assays:
L1210 [1] = assay: Carcinostatic activity against mouse L1210 cells allografted in mouse assessed as increase in survival at 25 mg/kg relative to control
L1210 [2] = assay: Carcinostatic activity against mouse L1210 cells allografted in mouse assessed as increase in life span at 25 mg/kg relative to control
L1210 [3] = assay: Carcinostatic activity against mouse L1210 cells allografted in mouse assessed as increase in life span at 50 mg/kg relative to control

SMILES	T/C (L1210 [1]) [%]	Activity (L1210 [2]) [%]	Activity (L1210 [3]) [%]
C[As](C)SC(C)(C)C(N)C(=O)O (stereo not given)	117	3	2
C[As](C)Sc1ncnc2[nH]cnc12	144	7	–
